# Binding of CDR-mutated scFvs to a peptide of the spike HR2 region

Data: MIT Lincoln Laboratory AlphaSeq set, Engelhart et al. 2022, doi:10.1038/s41597-022-01779-4, as distributed in FLAb.

All variants were tested on one target, the spike HR2 peptide PDVDLGDISGINAS (SARS-CoV-2).

Ab-14 is the parent antibody, in scFv form: VH, then a 15-residue (Gly4Ser)3 linker, then VL. The light chain is unchanged in all variants.
VH: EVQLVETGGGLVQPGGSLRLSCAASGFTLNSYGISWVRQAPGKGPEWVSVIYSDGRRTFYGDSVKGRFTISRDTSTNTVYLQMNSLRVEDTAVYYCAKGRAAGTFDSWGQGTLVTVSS
VL: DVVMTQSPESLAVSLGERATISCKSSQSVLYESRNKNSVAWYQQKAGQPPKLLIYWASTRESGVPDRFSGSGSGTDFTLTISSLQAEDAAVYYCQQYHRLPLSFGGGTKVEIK

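The starting antibody came from a phage panning campaign against this peptide. In library AAYL49, one, two or three CDR residues were substituted; doubles and triples were drawn at random. The assay is AlphaSeq: two haploid yeast populations carry antibody and antigen on their surface. The frequency of each diploid, read from paired DNA barcodes, reflects how well the two displayed proteins bind. A regression on co-assayed BCL2-family reference pairs converts the normalised counts of each replicate to an apparent Kd. The assay was run in three technical replicates.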

Variants are written as CDR1, CDR2 and CDR3 of the heavy chain (limits as in the source). Parent: GFTLNSYGIS, VIYSDGRRTFYGDSVK, GRAAGTFDS. Affinities are written as log10 Kd with Kd in nM; a lower number is a better binder. A mean of the replicates is given; it leaves out those without a signal. A pair that was not seen in any replicate is written "not detected"; this usually means weak binding, but a binder can also be missed. Three control strains display no target. For library AAYL49, 15% of the pairings with them gave a signal, with a median of 4.06 and one signal in twenty below 2.83, so weak values seen in few replicates may be background.

CDR-H1 | CDR-H2 | CDR-H3 | log10 Kd (nM), mean | detected
GFTLNSYGIE | VIYSDGRRTFYQDSKK | GRAAGTFDS | 3.78 | 1 of 3
GFTLNSYGIS | VWYSDGRGTFYGDSVK | GRAAGTFDS | not detected | 0 of 3
GFTSNSYGIS | VIYSDGGRTFYGDSVW | GRAAGTFDS | not detected | 0 of 3
QFTLNGYGIS | VIYSDGRQTFYGDSVK | GRAAGTFDS | 4.14 | 2 of 3
GFTLNSYMIS | VAPSDGRRTFYGDSVK | GRAAGTFDS | not detected | 0 of 3
GFTLNSYGMS | VMYSDGRRTFYGDSVK | GRAAGTFHS | 4.50 | 2 of 3
GFTRNSGGIS | VIYSDGRRTFYGDSVK | GRADGTFDS | not detected | 0 of 3
GFTLNSYGIS | VIYHDGRRTFTGDSVK | GRAAGTFDS | 3.43 | 3 of 3
GFKLNFYGIS | VIYSDGRRTFYGDEVK | GRAAGTFDS | 2.86 | 3 of 3
GFTLNSFGIS | VIYSDGRRTCYGDQVK | GRAAGTFDS | 3.77 | 1 of 3
GFTLFLYGIS | VIYSYGRRTFYGDSVK | GRAAGTFDS | not detected | 0 of 3
GFTLNSYGIS | VIYSDGRRTFYGFSVK | GRAAGTFDQ | not detected | 0 of 3
GFTLNSYGIF | VIYSDGRRTVYGDSVN | GRAAGTFDS | 3.91 | 2 of 3
GFTLNSYGIS | VIYSDGRRRFNGDSVK | GRAAGTFTS | 3.49 | 1 of 3
GFTLCSYGIS | VIHSDGRRTFYGESVK | GRAAGTFDS | 2.80 | 1 of 3
GFTLNSYAIH | VIYSDGRRSFYGDSVK | GRAAGTFDS | not detected | 0 of 3
GWKLNSYGIS | VIYSDGRRTNYGDSVK | GRAAGTFDS | 4.38 | 1 of 3
GFTLNCYGIS | VIYSDGRRTFYGDSVK | CRTAGTFDS | 3.19 | 1 of 3
GFTLRSYGIS | VIYSDGRRTFYGDSVK | FRAAGTFDS | 1.54 | 3 of 3
GFTLNSYGIS | VIYSDGRLTFYGDSVK | DRAAGTRDS | 4.30 | 1 of 3
GFTLNSYGIS | FIYSDARRTPYGDSVK | GRAAGTFDS | 3.60 | 1 of 3
KFTLNSYGIS | VIYSDGRRTGYGDSVK | GRAAGIFDS | 6.47 | 1 of 3
GFTLNIYGIS | VWYSDGRRQFYGDSVK | GRAAGTFDS | 3.89 | 2 of 3
GFTFNSYGIS | VIYSDNRRTFTGDSVK | GRAAGTFDS | 3.23 | 1 of 3
GFTLNSYGIS | VIYSDGRRTFYGDSVK | PRAAGRFDG | 3.46 | 1 of 3
GFTLNSYGIS | VIYSDGRRNFYGDSVK | PRAAGTFDS | not detected | 0 of 3
GFTLNSYGIL | VIYSDGGITFYGDSVK | GRAAGTFDS | not detected | 0 of 3
GFTLNSYGIS | VIYSDGRRTFYDDSVK | GRAAGEFDH | 4.92 | 3 of 3
GFTLYSYGIS | VIYSDGRRTFYGDSGK | GRAKGTFDS | not detected | 0 of 3
GFTLNSYGIS | VIYSDARRTFYGDSVK | VRNAGTFDS | 5.04 | 1 of 3
GFTLCSYTIS | VIYSDGRRTFGGDSVK | GRAAGTFDS | not detected | 0 of 3
GFTLNSYGIS | VIYSDGRRTFYGDSNK | GGFAGTFDS | 4.60 | 2 of 3
GFTLNSVGIS | VIYSDGARTFYGDSVK | GNAAGTFDS | 4.66 | 1 of 3
WFTLNSYGIS | VNYSDGRRTFYGDSVK | GRAAGTFDV | not detected | 0 of 3
GFTLNSYGIS | VIYSDGRRTFYGESVK | GRAAGFTDS | not detected | 0 of 3
GFTLNSYGIS | VIYSDGRRTFRGDSVK | GIAAGTFDS | not detected | 0 of 3
GLTLNSYPIS | VIYSDGRRTIYGDSVK | GRAAGTFDS | not detected | 0 of 3
GDTLNSMGIS | VIYSDGRRTFYGDSVK | MRAAGTFDS | 2.75 | 3 of 3
GFTLNSYGIR | VIRSDGRRTFYGDSVK | GWAAGTFDS | 4.73 | 1 of 3

The remaining entries, values ahead:

log10 Kd (nM), mean | detected | CDR-H1 | CDR-H2 | CDR-H3
not detected | 0 of 3 | GFTCNSYGIT | VIYSDGRRTFYGDEVK | GRAAGTFDS
not detected | 0 of 3 | GFDLNSYGIS | VILSDGRRTFYGDSTK | GRAAGTFDS
4.23 | 2 of 3 | GFTLNSYGIL | VIYSDGRRTMYGDSVK | GRAAKTFDS
1.78 | 3 of 3 | GFCLTSYGIS | VIYSDGRRTFYGDNVK | GRAAGTFDS
not detected | 0 of 3 | GFTLNSYGIP | VIYSDGRRTVYGDSVK | GRAAGAFDS
not detected | 0 of 3 | GFTLNSYRIS | VIYSDGRRTFYGDSVK | GRAGGTFPS
3.65 | 1 of 3 | GFTLNSYGIS | VIYSDGRRTCYGTSVK | GRAAGTHDS
2.11 | 3 of 3 | GFILNSYGIS | VIYSDGRRTFYGDSVT | GRAAGTFDS
4.73 | 1 of 3 | GFTLQSYGIS | VIYSDGRRTFYGDSPK | RRAAGTFDS
4.15 | 1 of 3 | GFTLNSYGIS | VIYSDGRATFYGDSVK | GRKATTFDS
2.50 | 3 of 3 | GFLANSYGIS | VIYSDGRRTFYGDSVK | GQAAGTFDS
4.99 | 2 of 3 | GFTLNSYGIS | TIYSDGRRTEWGDSVK | GRAAGTFDS
4.87 | 2 of 3 | GFTLNSYGIS | VIYSDKRRTQYGDFVK | GRAAGTFDS
3.98 | 1 of 3 | GFTLNSYGIS | VIYSDGRRNFYGDSVG | GRAAGTFTS
not detected | 0 of 3 | GFTLNSYGIS | VIYSDGRRTDYGDSVK | GRAAGRFDS
4.71 | 1 of 3 | GFTLNSYGIS | VIYSDGRRTFYFRSVK | GRAAMTFDS
not detected | 0 of 3 | GFTQNSYGIS | VIYSDGRRTFYGDSVK | GRAAGMFDS
not detected | 0 of 3 | GFTFNSYGIS | VIGSDGRRTFYGDSVK | GRAAGMFDS
3.50 | 1 of 3 | GFTLNSYGIS | VIYSDGRRAFYGDSVK | IRALGTFDS
not detected | 0 of 3 | GFTLNSYGIS | VIYSDGRYTFWGDSVK | GRAAGMFDS
not detected | 0 of 3 | GFTLNSYGPS | VIYSDGRRTQYGDSVW | GRAAGTFDS
not detected | 0 of 3 | GFTLNSYGIS | WIYSDGRRTFKGDSVK | GRANGTFDS
not detected | 0 of 3 | GFTFNSEGIS | VIYSDGRRTFYGDSVK | GRAAGTFDS
2.63 | 3 of 3 | GFTLNSYGIS | VIYSDGRRTFNGDSFK | GKAAGTFDS
4.05 | 1 of 3 | SFTLNSPGIS | VIYSDGRRTFYGDSVK | GRAAYTFDS
not detected | 0 of 3 | GFTLSSYGIF | VIDSDGRRTFYGDSVK | GRAAGTFDS
4.60 | 2 of 3 | SFTLNDYEIS | VIYSDGRRTFYGDSVK | GRAAGTFDS
4.13 | 2 of 3 | GFTLNSYIIS | VIYSDGRWTFYGDSVK | GRAAGTFSS
2.97 | 2 of 3 | GFTLNSYGIS | VIYSDGRRTFYADSVK | GFAAYTFDS
not detected | 0 of 3 | GFFLNSYGIS | VIYSPGRRTFYPDSVK | GRAAGTFDS
4.73 | 1 of 3 | GFTLYSYGIS | VIVSDGRRTFYGDSVK | GRAAYTFDS
5.27 | 1 of 3 | GDTLNSYGIS | VCYSDKRRTFYGDSVK | GRAAGTFDS
4.45 | 3 of 3 | GFTLLSYGIS | VIYSDGRRTFYGDSVI | GRAALTFDS
not detected | 0 of 3 | GFTLNSYGIS | PIYFDNRRTFYGDSVK | GRAAGTFDS
not detected | 0 of 3 | GFTTNNYHIS | VIYSDGRRTFYGDSVK | GRAAGTFDS
not detected | 0 of 3 | GFTLNSMGIS | VISSDARRTFYGDSVK | GRAAGTFDS
not detected | 0 of 3 | GFTLNSYGIS | VIYGDGRRTFYGDSWK | GRAAPTFDS
4.85 | 1 of 3 | FFLLNSYGIS | VIYSDGRRTFYGDSVK | GRAAGTFDT
not detected | 0 of 3 | GVTLNSYGMS | VIYSDGYRTFYGDSVK | GRAAGTFDS
not detected | 0 of 3 | GETLASYGIS | VIYSDGRRTFYGDSPK | GRAAGTFDS

For reference, 5 entries of the list once more:

{"CDR-H1": "GFTFNSYGIS", "CDR-H2": "VIYSDNRRTFTGDSVK", "CDR-H3": "GRAAGTFDS", "log10 Kd (nM), mean": "3.23", "detected": "1 of 3"}
{"CDR-H1": "GFTLNSYGPS", "CDR-H2": "VIYSDGRRTQYGDSVW", "CDR-H3": "GRAAGTFDS", "log10 Kd (nM), mean": "not detected", "detected": "0 of 3"}
{"CDR-H1": "GFTLNSYGIS", "CDR-H2": "VIYSDGRRNFYGDSVG", "CDR-H3": "GRAAGTFTS", "log10 Kd (nM), mean": "3.98", "detected": "1 of 3"}
{"CDR-H1": "GFTLNSYRIS", "CDR-H2": "VIYSDGRRTFYGDSVK", "CDR-H3": "GRAGGTFPS", "log10 Kd (nM), mean": "not detected", "detected": "0 of 3"}
{"CDR-H1": "GFTLNSYGIF", "CDR-H2": "VIYSDGRRTVYGDSVN", "CDR-H3": "GRAAGTFDS", "log10 Kd (nM), mean": "3.91", "detected": "2 of 3"}